Data: paper PMC10449733, “Predicting [^177Lu]Lu-HA-DOTATATE kidney and tumor accumulation based on [^68Ga]Ga-HA-DOTATATE diagnostic imaging using semi-physiological population pharmacokinetic modeling” (EJNMMI Physics, 2023)

Assay: Semi-physiological population PK model (six-compartment NLMEM, NONMEM) informed by patient imaging data
Format: in vivo, human
Details: estimated, FOCE-I
Procedure: In order to describe and compare differences in (population) PK between [^68Ga]Ga-HA-DOTATATE and [^177Lu]Lu-HA-DOTATATE, two semi-physiological nonlinear mixed-effects models (NLMEMs) with a similar model structure were developed. Using this approach, differences in population PK parameters between both radiopharmaceuticals were determined. First, a population PK model of [^68Ga]Ga-HA-DOTATATE was developed fully informed by a previously developed PBPK model. Subsequently, the model structure was applied to [^177Lu]Lu-HA-DOTATATE and parameters describing differences between both radiopharmaceuticals were estimated. Finally, both developed models were used to predict [^177Lu]Lu-HA-DOTATATE PK based on [^68Ga]Ga-HA-DOTATATE observations.
The first step of our approach was to develop a semi-physiological model for [^68Ga]Ga-HA-DOTATATE. Structural model development was informed based on a previously published PBPK model, where compartments were lumped based on their SSTR-expressing nature. […] Compartment five consisted of the lungs, pancreas, stomach, thyroid and liver. Structural model parameters were based on estimates from a previously published PBPK model. Organ volumes were fixed for all patients and derived from the ICRP Publication 89 adult human model. The tumor compartment volume was based on individual measured tumor volumes and consisted of the sum of volumes of all segmented tumors (based on).
The stochastic or statistical model accounted for inter-individual variability (IIV) and residual unexplained variability. For [^68Ga]Ga-HA-DOTATATE, IIV was added to uptake rate parameters. IIV was fixed based on assumed population variability, using information from ranges included in the previously developed PBPK model, assumed variability in uptake in organs and tumors based on clinical observations and estimated IIV in previously published population PK models for radiolabeled SSAs. IIV was modeled using an exponential distribution according to Eq. 2, while a proportional error model described the residual error according to Eq. 3.2 Pi=Ppop∗e^ηi 3 Cobs,ij=Cpred,ij∗(1+εp,ij) where Pi represents the individual PK parameter, Ppop represents the population PK parameter, and ηi represents the IIV effect for the ith individual with mean 0 and variance ω^2. Cobs represents the observed concentration and Cpred the predicted concentration for the ith individual and the jth measurement, and εp the proportional error with mean 0 and variance σ^2 for the ith individual and the jth measurement.
Factors known to affect PK parameters were added to the model a priori, since model development was based on fixed parameters rather than estimated based on data. […]

## [^177Lu]Lu-HA-DOTATATE
NET patients, RSE 15%
  k13 (kidney uptake rate) fold difference compared to [^68Ga]Ga-HA-DOTATATE: 0.49 fold
Nine NET patients, RSE 14%
  k14 (tumor uptake rate) fold difference compared to [^68Ga]Ga-HA-DOTATATE: 1.43 fold
Nine NET patients, RSE 15%
  k12 (spleen uptake rate) fold difference compared to [^68Ga]Ga-HA-DOTATATE: 0.29 fold
Nine NET patients, RSE 35%
  k40 (tumor degradation rate) fold difference compared to [^68Ga]Ga-HA-DOTATATE: 0.38 fold
